Test [1] has as its target bromodomain protein BRD4 BD2 (Homo sapiens, UniProt O60885). Kind of test: HTRF in vitro assay, inhibitory activity against BRD4 BD2. To be noted: read-out: BRD4(BD2) IC50, BRD4(2) 30 nM in final system. On the technique in general: In TR-FRET formats the signal depends on donor and acceptor labels being close together.
The target of test [2] is bromodomain protein BRD4 BD1 (Homo sapiens, UniProt O60885). Kind of test: HTRF in vitro assay, inhibitory activity against BRD4 BD1. To be noted: read-out: BRD4(BD1) IC50, BRD4(1) 30 nM in final system.

Each structure is given as a SMILES string.

As a reminder, the IC50 is the concentration that gives 50% inhibition. Turning to `CCNC(=O)c1cc2c(C(c3ccccc3)c3ccc(O)cc3)cn(C)c(=O)c2[nH]1` (centres unmarked), the IC50 in test [1] was in the range of 10 to 100 nM; in test [2], 100 to 1000 nM.

On to `CC(c1ccccc1)c1cn(C)c(=O)c2[nH]c(C(=O)NCC(F)(F)F)cc12` (centres unmarked), for which the concentration for half-maximal inhibition (IC50) in test [1] was less than 10 nM; in test [2], 100 to 1000 nM.

As for `Cc1nocc1-c1cc2c(=O)n(C)cc(C(C)c3ccccc3)c2o1` (centres unmarked), the IC50 was less than 10 nM in test [1] and 100 to 1000 nM in test [2].

`CCNC(=O)c1cc2c(C(c3ccccc3)c3ccc(OC)cc3)cn(C)c(=O)c2[nH]1` (centres unmarked): the IC50 lay in the range of 10 to 100 nM in test [1] and 100 to 1000 nM in test [2].
